System: MCF7 (low Her2-expressing breast cancer cell line)
Assay: Macrophage engulfment of MCF7 cells
Type: cell-based, human
Details: monotherapy
Source text: In particular, EGFR+ melanoma (A431) cells and lung adenocarcinoma (HCC827) cells, EGFR− chronic myeloid leukemia (K562) cells, and HER2+ breast cancer (HCC1954HER2 HI and MCF7HER2 LOW) cells were used to facilitate combinations with an anti-EGFR antibody (cetuximab) and an anti-HER2 antibody (trastuzumab).

In the case of “trastuzumab: anti-Her2 antibody [reference compound]”, the phagocytosis is reported as “did not induce phagocytosis”.

Source: patent publication US20210379153A1, “COMBINATION THERAPIES COMPRISING SIRP ALPHA-BASED CHIMERIC PROTEINS” (Shattuck Labs, Inc., priority 2018, published 2021)
